Test results from article PMC1784591 (Infectious Diseases in Obstetrics and Gynecology, 2004).

Test system: term human placenta (single cotyledon)

In the case of antipyrine 14C, the “single pass maternal-fetal transfer” value is reported as over 40% and the transport fraction is reported as over 1.85.
